Experimental findings from patent US20220381657A1, “METHOD FOR PREPARING BIOLOGICAL MATERIAL HAVING EXCELLENT LIGHT-TRANSMITTING PROPERTY” (RIKEN, priority 2016, published 2022) are described below.

Structures can show the parent of a compound that is named as a salt.

One data set deals with mouse kidney. Description: Refractive index adjustment of delipidated mouse kidney (transmissive image, transmittance). To be noted: compared with 70 wt % Histodenz and 70 wt % sucrose solutions.
`Cc1cc(=O)n(-c2ccccc2)n1C` [#0640, 2,3-Dimethyl-1-phenyl-5-pyrazolone]: the “appearance and transmittance of mouse kidney after refractive index adjustment” value is listed as “better results”.

The subject of another data set is fixed brain tissue suspension. Description: 1st delipidation assay: solubilization of fixed brain tissue suspension, turbidity at 600 nm. Details: species or system mice. To be noted: Table 1; 10 wt % chemical, fixed mouse brain suspension, 37° C. overnight; PBS = 1.000.
As to `C[N+](C)(C)Cc1ccccc1.[OH-]` [#0387, Benzyltrimethyl- ammonium Hydroxide], the “1st delipidation assay Relative OD600” value is reported as 0.258.

For `CC(CN)CCCN` (stereo not shown) [#1267, 2-Methyl-1,5-diaminopentane], the “1st delipidation assay Relative OD600” value came out at 0.244.

Tested on in the next data set: not listed separately
Description: 1st RI evaluation assay: refractive index at 589 nm of 10 wt % aqueous solution. Format: physicochemical.
Settings: not given
As for `Cc1cc(=O)n(-c2ccccc2)n1C` [#0640, 2,3-Dimethyl-1-phenyl-5-pyrazolone], the “1st RI evaluation assay RI of 10% chemical” value was 1.3549.

Take `NCCCNCCCN` [#0785, 3,3′-Diamino-dipropylamine]: the “1st RI evaluation assay RI of 10% chemical” value is reported as 1.3502.

The data set is the same for the next values; noted with them: Table 3; 10 wt % aqueous solution, 589 nm.
Consider `CNCC(O)c1cccc(O)c1.Cl` (racemic) [#1142, DL- Phenylephrine hydrochloride], for which the “1st RI evaluation assay RI of 10% chemical” value came out at 1.3539.

`CN(C)CCSSCCN(C)C` [#0299, Bis(2-dimethyl-aminoethyl) disulfide dihydrochloride]: the “1st RI evaluation assay RI of 10% chemical” value was determined as 1.3523.

For the compound `CCCC[N+](CCCC)(CCCC)Cc1ccccc1.[Cl-]` [#0307, Benzyltributyl- ammonium chloride], the “1st RI evaluation assay RI of 10% chemical” value was 1.3507.

In the case of `CCCC[n+]1ccccc1.[Br-]` [#0315, 1-Butyl-pyridinium bromide], the “1st RI evaluation assay RI of 10% chemical” value amounted to 1.3504.

For the compound `NCCN1CCNCC1` [#0338, N-(2-Aminoethyl) piperazine], the “1st RI evaluation assay RI of 10% chemical” value came to 1.3507.

With `OCCNCc1ccccc1` [#0389, N-Benzyl- ethanolamine], the “1st RI evaluation assay RI of 10% chemical” value amounted to 1.3524.

As to `CCCC[n+]1ccccc1.[Cl-]` [#0415, 1-Butyl-pyridinium chloride], the “1st RI evaluation assay RI of 10% chemical” value is reported as 1.3505.

Take `C[N+](C)(Cc1ccccc1)c1ccccc1.[Cl-]` [#0450, Benzyl- dimethyl- phenyl- ammonium chloride]: the “1st RI evaluation assay RI of 10% chemical” value is given as 1.3525.

For the compound `CCN(CC)C(=O)c1cccnc1` [#0609, N,N-Diethyl- nicotinamide], the “1st RI evaluation assay RI of 10% chemical” value was 1.3502.

For `CN(C)C(=O)c1ccccc1` [#0788, N,N- Dimethyl- benzamide], the “1st RI evaluation assay RI of 10% chemical” value amounted to 1.3505.

As to `CN(C)CCSC(=N)N` [#0830, S-[2-(Dimethyl-amino)ethyl] isothiourea-dihydrochloride], the “1st RI evaluation assay RI of 10% chemical” value was 1.3527.

As for `CN(C)C(=O)Oc1cccc([N+](C)(C)C)c1` [#0864, Neostigmine bromide], the “1st RI evaluation assay RI of 10% chemical” value stood at 1.3503.

Consider `NC[C@H](O)[C@@H](O)[C@H](O)[C@H](O)CO` [#0956, D-Glucamine, reference compound], for which the “1st RI evaluation assay RI of 10% chemical” value came to 1.3475.

Turning to `[O-][n+]1ccccc1` [#1078, Pyridine N- oxide], the “1st RI evaluation assay RI of 10% chemical” value was 1.3518.

Take `NCc1cccnc1` [#1102, 3-Picolylamine]: the “1st RI evaluation assay RI of 10% chemical” value is reported as 1.3527.

As for `Cc1cccc[n+]1[O-]` [#1140, 2-Methyl-pyridine N-oxide], the “1st RI evaluation assay RI of 10% chemical” value was found to be 1.3511.

As for `Cc1cc[n+]([O-])cc1` [#1145, 4- Methylpyridine N-oxide], the “1st RI evaluation assay RI of 10% chemical” value is on record as 1.3538.

`C1CCC2=NCCCN2CC1.O=C1NC(=O)c2ccccc21` [#1181, Phthalimide DBU salt]: the “1st RI evaluation assay RI of 10% chemical” value is on record as 1.3526.

As for `CNC(=O)c1cccnc1` [#1283, N-Methyl- nicotinamide], the “1st RI evaluation assay RI of 10% chemical” value is given as 1.3522.

Regarding `Cc1ccc(C(=O)C(C)CN2CCCCC2)cc1.Cl` (stereo not shown) [#1392, Tolperisone hydrochloride], the “1st RI evaluation assay RI of 10% chemical” value is recorded as 1.3522.

For `Cc1cccc(C)c1NC1=NCCCS1.Cl` [#1612, Xylazine hydrochloride], the “1st RI evaluation assay RI of 10% chemical” value is listed as 1.3519.

Turning to `OCC1O[C@@H](O[C@]2(CO)O[C@H](CO)C(O)C2O)C(O)C(O)[C@@H]1O` (stereo partly drawn) [D-(+)-Sucrose, reference compound], the “1st RI evaluation assay RI of 10% chemical” value came out at 1.3472.

`CC(=O)N(CC(O)CO)c1c(I)c(C(=O)NCC(O)CO)c(I)c(C(=O)NCC(O)CO)c1I` (stereo not shown) [Histodenz ™, reference compound]: the “1st RI evaluation assay RI of 10% chemical” value was determined as 1.3490.

Tested on in the next data set: not listed separately
Nature of the data set: Refractive index of high-concentration aqueous solution. Type of data set: physicochemical.
Settings: not given
For Hydrazine carbonate [#1052], the RI was 1.4799.

A further data set deals with EGFP (Aequorea victoria, UniProt P42212, F64L/H231L/S65T).
Test: not given
Format: biochemical. As to conditions: Table 3.
Turning to Hydrazine carbonate [#1052], the “2nd quenching assay EGFP fluorescence” value is reported as “quench free”.

Staying with this data set, now noted: stated in the description.
Take Hydrazine carbonate [#1052]: the “retention of fluorescence of a fluorescent protein” value is “allowing retention of fluorescence of a fluorescent protein”.
